Experiments:
[1] = test system: protease from Conidiobolus brefeldianus MTCC 5185; test: Stability of protease in presence of organic solvents at 37° C.; type: physicochemical; settings: 20% (v/v) solvent
Description: (§1) This example illustrates the effect of water miscible as well as water immiscible organic solvents on stability of crude protease at 37° C. […] Samples were removed at different time intervals and residual activity was estimated. Sample without organic solvent served as control.

[2] = test system: protease from Conidiobolus brefeldianus MTCC 5185; test: Stability of protease in presence of organic solvents at 28° C.; type: physicochemical; parameters: key to residual activity of protease, 0 h: % of initial activity with respective solvent (initial = 100%); settings: crude protease, 20% (v/v) solvent
Description: as §1, with “28°” for “37°”, “control. Initial activity with respective solvents was taken as 100% (Table 17). […] (Table 17).” for “control.”

In the case of 1-butanol, the “Residual Activity (%) of protease, 30 min” value ([1]; pH 7, 30 min) is reported as 47.57%, the “Residual Activity (%) of protease, 60 min” value ([1]; pH 7, 60 min) is reported as 30.60% and the “Residual Activity (%) of protease, 120 min” value ([1]; pH 7, 120 min) is reported as 33.00%. For the same substance, the “Residual Activity (%) of protease, 240 min” value ([1]; pH 7, 240 min) was 13.53%, the “Residual Activity (%) of protease, 0” value ([1]; crude protease, pH 7, 0 min) was 100% and the “residual activity of protease, 0 h” value ([2]; 0 h) was 100. For the same substance, the “residual activity of protease, 5 h” value ([2]; 5 h) was 75.26, the “residual activity of protease, 12 h” value [2] was 39.93 and the “residual activity of protease, 12 h” value ([2]; listed as butanol) was “around 40”.
